Assay results taken from US20220226329A1, “METHOD TO INDUCE HEMATOPOIETIC CHIMERISM” (The General Hospital Corporation, priority 2019, published 2022).

Key:
Bcl-2 = conditions: Selleckchem.com; read-out: inhibitor constant (Ki) to the target proteins; cited from earlier work
[1] = no significant toxicity otherwise

| Compound | Ki (Bcl-2) | Toxicity [1] |
| --- | --- | --- |
| CC1(C)CCC(c2ccc(Cl)cc2)=C(CN2CCN(c3ccc(C(=O)NS(=O)(=O)c4ccc(N[C@H](CCN5CCOCC5)CSc5ccccc5)c(S(=O)(=O)C(F)(F)F)c4)cc3)CC2)C1 [navitoclax] | 0.5 nM | – |
| Cc1c(-c2c(-c3ccc(F)o3)sc3ncnc(O[C@H](Cc4ccccc4OCc4ccnn4CC(F)(F)F)C(=O)O)c23)ccc(OCCN2CCN(C)CC2)c1Cl [S63845] | – | mild transient transaminitis and elevated amylase |
